Reference: patent publication US20240374749A1, “ANTIBODY-EXATECAN CONJUGATES” (Glykos Finland Oy, priority 2023, published 2024)

Tests used:
[1] = tested on: HER2+ HCC1954 breast cancer cells
Description: (§1) HER2+ SK-BR-3 breast cancer cells (ATCC), HCC1954 breast cancer cells (CRL-2338, ATCC), JIMT-1 breast cancer cells (DSMZ) and SKOV-3 ovarian cancer cells (ATCC) were cultured essentially according to the providers' instructions. After incubation with ADCs, cell viability was determined using PrestoBlue reaction using manufacturer's instructions. Cell viability data data was transferred to GraphPad Prism to determine IC50 values. Exatecan (mesylate salt) and DXd (free deruxtecan payload) were purchased from MedChemExpress.

[2] = tested on: HER2+ SK-BR-3 breast cancer cells
Description: as §1

[3] = tested on: HER2+ SKOV-3 ovarian cancer cells
Description: as §1

[4] = tested on: HER2+ SK-BR-3 breast cancer cells; test: In vitro cytotoxicity assay, Example 4 (FIG. 3A); assay type: cell-based; settings: SK-BR-3 cells
Description: HER2+ SK-BR-3 breast cancer cells (ATCC) and CD33+ MOLM-13 leukemia cells (DSMZ, German Collection of Microorganisms and Cell Cultures) were cultured essentially according to the providers' instructions. […] FIG. 3A: HER2+ SK-BR-3 breast cancer cells were incubated with trastuzumab-exatecan ADC TRExM01, trastuzumab-deruxtecan ADC TRDxM01 and free exatecan payload (provided as mesylate salt). […] FIG. 3B: CD33+ MOLM-13 leukemia cells were incubated with lintuzumab-exatecan ADC LNExM01 and lintuzumab-deruxtecan ADC TRDxM01.

[5] = tested on: HER2+ JIMT-1 breast cancer cells
Description: as §1

Substance	cytotoxic activity (in words) [1]	cytotoxic activity (in words) [2]	cytotoxic activity (in words) [3]	IC50 [4] [nM]	cytotoxic activity (in words) [5]
trastuzumab	no cytotoxic activity	very low cytotoxic activity	very low cytotoxic activity	–	–
TRDxM: trastuzumab-deruxtecan ADC DAR=8 [reference compound]	comparable activity to TREgM, TREbM and TRExM	–	comparable activity to TREXM	0.4	comparable activity to TREXM
